{"source": "PubChem BioAssay (Tox21)", "note": "The list shows a part of the results, in another mix than the full data. Inconclusive results are not listed. Calls of active or inactive are those of the source. Calls come from the whole dose curve; as a rule, active = well fitted cell-killing curve with a large enough effect in the repeat runs; inconclusive = weak or mixed curves, or effect the other way; inactive = flat fitted curve, though single readings scatter. % is set by controls: 0 for no effect and ±100 for the full control effect; potency is the fitted concentration of half-maximal effect.", "data": [{"assay": "cAMP Responsive Elements (CRE) small molecule antagonists, cell-based qHTS assay: qHTS cell viability counter screen (AID 2060913); note: nearly all actives have a fitted effect of over 40% in size", "settings": "CRE-bla HEK293T viability, CellTiter-Glo luminescence, 5 h; series mostly up to 92.4 µM; viability change, negative = cytotoxic: at the top concentration", "description": "U.S. Tox21 Program National Center for Advancing Translational Sciences [NCATS] Division of Preclinical Innovation [DPI] U.S. Environmental Protection Agency [EPA] National Institutes of Environmental Health Sciences [NIEHS] National Toxicology Program [NTP] U.S. Food and Drug Administration [FDA] Tox21 Assay Overview: CREB (cyclic-AMP Responsive Element Binding Protein) is a cellular transcription factor. It binds to certain DNA sequences called cAMP Responsive Elements (CRE) and regulates the transcription of the genes. […] This cell line can be used to find agonists/antagonists of the cyclic AMP signaling pathway. The activation of the report gene under culture conditions can be detected by fluorescence intensity. This cell line has been used to screen the Tox21 10K compound library to identify agonists that induce oxidative stress. The cytotoxicity of the Tox21 compound library against the CRE-bla cell line was tested in parallel by measuring the cell viability using CellTiter-Glo assay (Promega, Madison, WI) in the same wells.\nTox21 Assay Protocol Summary: CRE-bla Hek 293T cells were suspended in assay medium (DMEM containing 10% dialyzed FBS, 0.1 mM NEAA, 1 mM sodium pyruvate and 25 mM HEPES) and dispensed at 2,000 cells/4 uL /well into 1536-well black wall/clear bottom plates using a Multidrop Combi (ThermoFisher Scientific, Waltham, MA) dispenser. After the assay plates were incubated at 37 C/5% CO2 for 18 hrs, 23 nL of compounds dissolved in DMSO, positive controls or DMSO only was transferred to the assay plate by a pintool workstation (Kalypsys, San Diego, CA), followed by addition of 1 uL of 1.25uM NKH477 (0.25 uM as final concentration) in assay medium using a Flying Reagent Dispenser (Aurora Discovery, San Diego, CA). The plates were incubated at 37 C and 5% CO2 for 3 hrs. Then 1 uL of LiveBLAzer B/G FRET substrate (Invitrogen, Carlsbad, CA) was added to each well using Bioraptr Flying Reagent Dispenser (FRD, Aurora Discovery, San Diego, CA). The plates were incubated at room temperature for 2 h, then fluorescence intensities were measured using an Envision plate reader (PerkinElmer, Shelton, CT) at Excitation 405nm, Emission 460nm and 530nm. The % activity was determined from the ratio of 460nm/530nm. For cell viability readout that measures cytotoxicity, 4 uL /well of CellTiter-Glo reagent was added into the assay plates using Bioraptr FRD. After 30 min incubation at room temperature, the luminescence intensity in the assay plates was measured using a ViewLux (PerkinElmer, Shelton, CT) plate reader.", "values": [{"smiles": "Cc1cc([N+](=O)[O-])c(O)c([N+](=O)[O-])c1", "viability change, negative = cytotoxic": "inactive: -25.8%"}, {"smiles": "CCOC(=O)Cl", "viability change, negative = cytotoxic": "inactive: 10.8%"}, {"smiles": "COC(=O)Cl", "viability change, negative = cytotoxic": "inactive: -4.36%"}, {"smiles": "O=C(Cl)OCCOC(=O)Cl", "viability change, negative = cytotoxic": "inactive: 21.7%"}, {"smiles": "O=C(Cl)Oc1ccccc1", "viability change, negative = cytotoxic": "inactive: 24.9%"}, {"smiles": "CCCCOP(OCCCC)OCCCC", "viability change, negative = cytotoxic": "inactive: -4.76%"}, {"smiles": "O=[As]c1ccccc1", "note": "(stereo unspecified)", "Potency": "active: 2730 nM"}, {"smiles": "O=[P+](Oc1ccccc1)Oc1ccccc1", "viability change, negative = cytotoxic": "inactive: 7.49%"}, {"smiles": "COP(=S)(Cl)OC", "viability change, negative = cytotoxic": "inactive: -1.28%"}, {"smiles": "CN(C(=O)Cc1ccc(Cl)c(Cl)c1)[C@H]1CC[C@@]2(CCCO2)C[C@@H]1N1CCCC1", "viability change, negative = cytotoxic": "inactive: -2.52% [at 42.5 µM]"}, {"smiles": "O=[N+]([O-])c1ccc(S(=O)(=O)O)c([N+](=O)[O-])c1", "viability change, negative = cytotoxic": "inactive: -21.5%"}, {"smiles": "CCNC(C)Cc1ccc2c(c1)OCO2", "note": "(stereo unspecified)", "viability change, negative = cytotoxic": "inactive: -0.813%"}, {"smiles": "O=P(Cl)(Cl)c1ccccc1", "viability change, negative = cytotoxic": "inactive: 1.02%"}, {"smiles": "ClP(Cl)c1ccccc1", "viability change, negative = cytotoxic": "inactive: -8.29%"}, {"smiles": "O=P(Cl)(Oc1ccccc1)Oc1ccccc1", "viability change, negative = cytotoxic": "inactive: 0.688%"}, {"smiles": "NC(=O)Nc1ccc([As](=O)(O)O)cc1", "Potency": "inactive"}, {"smiles": "O=[p+]1oc2ccccc2c2ccccc21", "note": "(stereo unspecified)", "viability change, negative = cytotoxic": "inactive: 4.68%"}, {"smiles": "CN(C(=O)Cc1cccc2occc12)[C@H]1CC[C@@]2(CCCO2)C[C@@H]1N1CCCC1", "viability change, negative = cytotoxic": "inactive: 13.4%"}, {"smiles": "CCC(C)(OOC(C)(C)C)OOC(C)(C)C", "viability change, negative = cytotoxic": "inactive: 7.96% [at 18.9 µM]"}, {"smiles": "CCCCO[P+](=O)OCCCC", "Potency": "inactive"}, {"smiles": "CN(C(=O)Cc1ccccc1)[C@H]1CC[C@@]2(CCCO2)C[C@@H]1N1CCCC1", "viability change, negative = cytotoxic": "inactive: 1.92% [at 42.5 µM]"}, {"smiles": "CC(C)CCCCCCCOP(OCCCCCCCC(C)C)Oc1ccccc1", "viability change, negative = cytotoxic": "inactive: 2.87%"}, {"smiles": "O=[N+]([O-])c1ccc([N+](=O)[O-])cc1", "viability change, negative = cytotoxic": "inactive: -3.51%"}, {"smiles": "CN(N=O)C(=N)N[N+](=O)[O-]", "viability change, negative = cytotoxic": "inactive: 4.55%"}, {"smiles": "CCOP(=S)(CC)Sc1ccccc1", "note": "(stereo unspecified)", "viability change, negative = cytotoxic": "inactive: -8.24%"}, {"smiles": "CCCCC(CC)CO[P+](=O)OCC(CC)CCCC", "note": "(stereo unspecified)", "viability change, negative = cytotoxic": "inactive: 11.1%"}]}]}
